The numbers were not newly measured in patent publication US20130210771A1, “METHODS AND COMPOSITIONS FOR TREATING CANCERS” (IRM LLC, priority 2007, published 2013), which cites them from elsewhere.

Amino acid sequences for entries named in this document (tags omitted).
UniProt O60674, whole entry, species assumed: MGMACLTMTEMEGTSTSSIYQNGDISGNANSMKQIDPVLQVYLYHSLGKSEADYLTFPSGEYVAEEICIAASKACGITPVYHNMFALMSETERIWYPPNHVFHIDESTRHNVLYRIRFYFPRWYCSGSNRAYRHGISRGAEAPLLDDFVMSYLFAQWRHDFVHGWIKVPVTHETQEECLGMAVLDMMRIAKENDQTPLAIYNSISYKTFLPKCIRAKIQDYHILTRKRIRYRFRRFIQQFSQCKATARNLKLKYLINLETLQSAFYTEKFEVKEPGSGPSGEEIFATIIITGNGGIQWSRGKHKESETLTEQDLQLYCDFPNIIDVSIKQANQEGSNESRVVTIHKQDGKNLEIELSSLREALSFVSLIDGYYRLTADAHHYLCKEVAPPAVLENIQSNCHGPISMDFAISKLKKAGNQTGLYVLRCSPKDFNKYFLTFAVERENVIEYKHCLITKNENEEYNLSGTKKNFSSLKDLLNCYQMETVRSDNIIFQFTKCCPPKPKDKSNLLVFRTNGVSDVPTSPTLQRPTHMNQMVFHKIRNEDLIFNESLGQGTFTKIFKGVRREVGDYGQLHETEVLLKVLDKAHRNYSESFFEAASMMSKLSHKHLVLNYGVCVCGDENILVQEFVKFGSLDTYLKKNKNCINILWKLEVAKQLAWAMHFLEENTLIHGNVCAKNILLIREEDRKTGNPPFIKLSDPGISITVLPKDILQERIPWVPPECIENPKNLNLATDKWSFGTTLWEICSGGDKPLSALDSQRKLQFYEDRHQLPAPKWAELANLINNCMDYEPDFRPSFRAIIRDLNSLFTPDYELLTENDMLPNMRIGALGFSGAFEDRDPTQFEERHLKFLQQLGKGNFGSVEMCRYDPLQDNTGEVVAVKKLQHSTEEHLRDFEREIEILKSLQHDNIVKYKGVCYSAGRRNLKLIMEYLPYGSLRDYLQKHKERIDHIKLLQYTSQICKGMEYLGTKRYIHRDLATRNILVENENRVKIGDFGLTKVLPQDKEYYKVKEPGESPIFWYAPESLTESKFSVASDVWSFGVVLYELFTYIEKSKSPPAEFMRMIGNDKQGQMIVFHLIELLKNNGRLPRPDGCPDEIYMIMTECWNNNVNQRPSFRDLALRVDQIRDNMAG

Each structure is given as a SMILES string.

This data set concerns the target JAK2 (Homo sapiens, UniProt O60674). To be noted: cited from earlier work.

In the case of `Cc1cc(Nc2cc(N3CCN(C)CC3)nc(Sc3ccc(NC(=O)C4CC4)cc3)n2)n[nH]1` [MK-0457], the “inhibition of JAK2” value is given as “moderate to strong inhibitor”.
